The structures appear in SMILES notation. Only a part is listed here, and it is no random draw. Records with an inconclusive call do not appear. Active and inactive are the calls of the source. Unless noted, calls follow the shape of the dose curve; as a rule, active = well fitted curve in the direction sought with a large enough effect in the repeat runs; inconclusive = weak or mixed curves; inactive = no such curve, though single readings can be large; an effect the other way counts as inactive or inconclusive.

Chains of the proteins cited; added tags and fusions are not shown.
UniProt P11511, whole entry: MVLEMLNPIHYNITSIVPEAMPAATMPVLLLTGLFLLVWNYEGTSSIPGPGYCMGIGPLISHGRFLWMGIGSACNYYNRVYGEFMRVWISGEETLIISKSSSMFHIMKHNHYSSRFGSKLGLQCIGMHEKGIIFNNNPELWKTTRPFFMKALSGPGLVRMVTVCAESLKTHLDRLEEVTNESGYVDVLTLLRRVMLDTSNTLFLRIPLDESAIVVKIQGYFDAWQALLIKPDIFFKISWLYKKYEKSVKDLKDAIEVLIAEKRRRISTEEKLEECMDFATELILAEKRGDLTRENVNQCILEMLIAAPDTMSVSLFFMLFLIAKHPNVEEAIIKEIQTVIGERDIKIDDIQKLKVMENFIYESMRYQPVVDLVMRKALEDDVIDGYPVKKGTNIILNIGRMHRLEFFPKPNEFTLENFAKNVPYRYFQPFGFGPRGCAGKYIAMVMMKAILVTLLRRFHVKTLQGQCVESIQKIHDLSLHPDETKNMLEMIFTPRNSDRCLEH
UniProt Q14994, whole entry: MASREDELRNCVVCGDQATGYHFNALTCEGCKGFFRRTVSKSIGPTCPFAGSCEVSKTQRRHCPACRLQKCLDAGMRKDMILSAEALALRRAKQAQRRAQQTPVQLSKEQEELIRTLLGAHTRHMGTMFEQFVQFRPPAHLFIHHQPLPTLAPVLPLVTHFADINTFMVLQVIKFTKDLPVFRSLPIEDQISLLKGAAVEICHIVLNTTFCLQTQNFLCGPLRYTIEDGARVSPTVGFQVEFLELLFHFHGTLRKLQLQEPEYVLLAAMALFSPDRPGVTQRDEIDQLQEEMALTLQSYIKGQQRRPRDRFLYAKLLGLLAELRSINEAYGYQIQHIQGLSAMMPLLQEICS
UniProt Q92731, whole entry: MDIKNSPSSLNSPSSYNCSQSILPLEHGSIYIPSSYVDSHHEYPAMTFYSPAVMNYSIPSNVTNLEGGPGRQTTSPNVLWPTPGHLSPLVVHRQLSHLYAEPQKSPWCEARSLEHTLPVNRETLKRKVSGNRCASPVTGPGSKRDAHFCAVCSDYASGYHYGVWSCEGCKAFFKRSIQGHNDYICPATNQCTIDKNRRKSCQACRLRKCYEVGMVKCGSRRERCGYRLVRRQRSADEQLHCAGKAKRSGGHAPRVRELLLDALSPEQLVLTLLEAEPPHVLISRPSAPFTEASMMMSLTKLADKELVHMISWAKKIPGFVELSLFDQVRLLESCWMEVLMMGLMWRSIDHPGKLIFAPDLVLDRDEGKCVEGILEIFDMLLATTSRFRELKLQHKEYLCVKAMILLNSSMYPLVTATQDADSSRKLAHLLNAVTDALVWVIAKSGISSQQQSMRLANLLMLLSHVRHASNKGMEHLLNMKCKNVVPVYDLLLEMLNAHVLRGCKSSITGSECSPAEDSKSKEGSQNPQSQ
UniProt P10275, whole entry: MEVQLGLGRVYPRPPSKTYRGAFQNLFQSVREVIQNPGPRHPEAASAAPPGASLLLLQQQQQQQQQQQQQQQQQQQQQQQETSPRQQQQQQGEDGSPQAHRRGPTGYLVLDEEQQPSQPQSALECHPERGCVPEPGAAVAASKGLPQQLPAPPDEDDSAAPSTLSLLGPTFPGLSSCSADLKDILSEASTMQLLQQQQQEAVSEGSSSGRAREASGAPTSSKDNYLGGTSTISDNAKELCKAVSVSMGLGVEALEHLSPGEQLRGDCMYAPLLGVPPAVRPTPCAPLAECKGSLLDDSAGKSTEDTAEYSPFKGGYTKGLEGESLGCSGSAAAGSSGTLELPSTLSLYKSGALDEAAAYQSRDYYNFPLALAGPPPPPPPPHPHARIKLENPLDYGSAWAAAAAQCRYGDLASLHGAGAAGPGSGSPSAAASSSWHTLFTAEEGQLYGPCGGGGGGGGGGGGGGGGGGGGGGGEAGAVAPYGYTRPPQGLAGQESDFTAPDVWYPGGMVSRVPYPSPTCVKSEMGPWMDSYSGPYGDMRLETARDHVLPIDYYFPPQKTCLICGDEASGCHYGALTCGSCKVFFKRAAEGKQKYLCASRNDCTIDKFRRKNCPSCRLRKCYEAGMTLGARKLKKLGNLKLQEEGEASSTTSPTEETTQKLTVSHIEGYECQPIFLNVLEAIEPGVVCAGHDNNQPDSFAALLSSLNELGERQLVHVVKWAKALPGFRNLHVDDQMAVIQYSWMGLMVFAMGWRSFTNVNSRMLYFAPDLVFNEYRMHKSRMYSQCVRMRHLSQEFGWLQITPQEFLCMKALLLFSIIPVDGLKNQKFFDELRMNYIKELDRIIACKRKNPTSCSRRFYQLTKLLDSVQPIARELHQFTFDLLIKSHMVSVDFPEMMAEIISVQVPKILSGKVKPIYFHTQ

Test [1] in a line: qHTS assay to identify small molecule agonists of the sonic hedgehog signaling (Shh) pathway - cell viability counter screen (AID 1259366). Also: potency is read from the fitted curve at half-maximal effect; nearly all actives have a fitted effect of over 50% in size. The note with it: NIH/3T3 Gli1-Luc viability, CellTiter-Fluor, 24 h. A digest of the protocol: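 Same-well cytotoxicity read. Gli1-Luc reporter 3T3 cells; compounds 24hr, 37C/5% CO2; CellTiter-Fluor fluorescence.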
Test [2] can be described thus: qHTS assay to identify small molecule antagonists of the sonic hedgehog signaling (Shh) pathway - cell viability counter screen (AID 1259367). Also: potency is read from the fitted curve at half-maximal effect; nearly all actives have a fitted effect of over 55% in size. The note with it: NIH/3T3 Gli1-Luc viability, CellTiter-Fluor, 24 h. A digest of the protocol:
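After a 4 hr settling period, 3T3 Gli1-Luc cells were treated with DMSO-dissolved chemicals and conditioned medium, kept 24 hr at 37C in 5% CO2, and assayed for viability by CellTiter-Fluor fluorescence following 1 hr reagent incubation.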
In general terms: qHTS replaces the single test concentration by a dilution series.

Test [3] in a line: qHTS assay for small molecule disruptors of the mitochondrial membrane potential - cell viability (AID 720634; calls by dose curve; also: potency is read from the fitted curve at half-maximal effect; nearly all actives have a fitted effect of over 20% in size). The note with it: HepG2 viability, ATP luminescence (CellTiter-Glo), 1 h. A digest of the protocol:
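HepG2 cells, 2,000 per well, attached overnight, then treated 1 hr at 37 C, 5% CO2. Viability read as ATP by CellTiter-Glo luminescence after 30 min at room temperature. Read in the same wells as the m-MPI membrane-potential dye assay.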

The target in a further test is Aromatase (Homo sapiens) (UniProt P11511). The test can be described thus: qHTS assay to identify aromatase inhibitors (AID 743083). Also: nearly all actives have a fitted effect of over 55% in size. Also: potency is read from the fitted curve at half-maximal effect.
The nature of test [4]: qHTS assay to identify small molecule antagonists of the peroxisome proliferator-activated receptor delta (PPARd) signaling pathway - cell viability counter screen (AID 743213). Also: potency is read from the fitted curve at half-maximal effect; nearly all actives have a fitted effect of over 50% in size. The note with it: PPARd-bla HEK293H viability, CellTiter-Glo luminescence, 17 h. A digest of the protocol:
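PPARd-bla HEK293H cells (3000/well) got compound plus 300 nM L165041 agonist for 17 h at 37 C. Viability in the same wells came from CellTiter-Glo luminescence after 30 min at room temperature.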

Test [5] has as its target Nuclear receptor subfamily 1 group I member 3 (Homo sapiens) (UniProt Q14994). The test can be described thus: qHTS assay to identify small molecule agonists of the constitutive androstane receptor (CAR) signaling pathway (AID 1224839). Also: potency is read from the fitted curve at half-maximal effect; nearly all actives have a fitted effect of over 15% in size.
Test [6] in a line: qHTS assay to identify small molecule antagonists of the estrogen related receptor signaling pathway with the pleiotropic PPARgamma coactivator (PGC) from Tox21 10K library (AID 1224841; call rule not given here; also: potency is read from the fitted curve at half-maximal effect; actives are mostly falling curves and most rising ones were filed inactive; nearly all actives have a fitted effect of over 50% in size). The note with it: PGC/ERR reporter cell line, ONE-Glo luciferase, 18 h.
Test [7] can be described thus: qHTS assay to identify small molecule antagonists of the estrogen related receptor (ERR) signaling pathway from Tox21 library (AID 1224848). Also: potency is read from the fitted curve at half-maximal effect; nearly all actives have a fitted effect of over 50% in size. The note with it: ERR reporter cell line, luciferase antagonist mode, 18 h. A digest of the protocol:
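Screening used an ERR reporter line supplied by NTP, exposed for 18 h at 37 C to library compounds delivered in DMSO. Signal was luciferase luminescence developed with ONE-Glo at room temperature for 30 min.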

A short description of test [8]: qHTS RealTime-Glo MT Cell Viability Assay in HEK293 cells - 40 hour (AID 1224874). The note with it: RealTime-Glo luminescence. The essentials:
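600 cells/well were plated with the nonlytic NanoLuc/prosubstrate reagent, pre-incubated 5 h, then given 23 nL of compound in DMSO. Incubation at 37 C for 40 h, with luminescence from viable-cell-reduced substrate read repeatedly from 0 h.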

For test [9], the target named is Estrogen receptor beta (Homo sapiens) (UniProt Q92731). The test can be described thus: qHTS assay to identify small molecule antagonists of the estrogen receptor beta (ER-beta) signaling pathway (AID 1259378; active = well fitted inhibition curve with a large enough effect in the signal ratio in the repeat runs, not every such curve was filed as active; the % refers to the signal ratio; also: potency is read from the fitted curve at half-maximal effect). The note with it: ER-beta-UAS-bla HEK293T, beta-lactamase FRET ratio, 16 h. A digest of the protocol:
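ER-beta-UAS-bla HEK293T (GripTite) cells in 2% charcoal-stripped FBS medium were preincubated 6 hr at 37C, dosed with compound, then stimulated with 1 nM E2 (final) for 16 hr; beta-lactamase reporter read by B/G FRET fluorescence after 2 hr substrate loading.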

Test [10] in a line: qHTS assay for small molecules that induce genotoxicity in human embryonic kidney cells expressing luciferase-tagged ATAD5 - cell viability (AID 651634; calls by dose curve; also: potency is read from the fitted curve at half-maximal effect; nearly all actives have a fitted effect of over 25% in size). The note with it: HEK293T ATAD5-luc cells viability, CellTiter-Fluor, 15.5 h. The essentials:
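HEK293T cells carrying luciferase-tagged ATAD5, 2,000 cells/well, exposed to compound for 15.5 hr at 37C. Viability read as live-cell protease activity by CellTiter-Fluor fluorescence after 30 min at 37C.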

Test [11] can be described thus: qHTS assay to identify small molecule antagonists of the androgen receptor (AR) signaling pathway using the MDA cell line - cell viability counter screen (AID 743041; also: potency is read from the fitted curve at half-maximal effect; nearly all actives have a fitted effect of over 45% in size). The note with it: MDA-kb2 viability, CellTiter-Fluor, 16 h; cells co-treated with R1881 androgen agonist. A digest of the protocol:
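Viability counter screen run alongside the AR antagonist reporter: cells seeded 5 h before compound, R1881 added, 16 h incubation at 37C without CO2, fluorescent CellTiter-Fluor signal quantified.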

A short description of test [12]: qHTS assay to identify aromatase inhibitors - cell viability counter screen (AID 743084).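 Also: cells stimulated with testosterone during compound exposure; nearly all actives have a fitted effect of over 55% in size.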 Also: potency is read from the fitted curve at half-maximal effect.
In test [13] the target is Nuclear receptor ROR-gamma (Homo sapiens) (UniProt P51449). The test can be described thus: qHTS assay to identify small molecule antagonists of the retinoid-related orphan receptor gamma (ROR-gamma) signaling pathway (AID 1159521). The note with it: Tet-on RORgamma CHO cells, RORE-luciferase, 16 h.
Test [14] can be described thus: qHTS assay to identify small molecule antagonists of the estrogen related receptor (ERR) signaling pathway from Tox21 library - cell viability counter screen (AID 1224834). Also: potency is read from the fitted curve at half-maximal effect; nearly all actives have a fitted effect of over 30% in size. A digest of the protocol: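 ERR reporter cells, 2,000 per well, rested 6 h, then exposed to compound in DMSO for 17.5 hours at 37 C. Viability read as fluorescence after 30 min with CellTiter-Fluor.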

Test [15] can be described thus: qHTS RealTime-Glo MT Cell Viability Assay in HEK293 cells - 32 hour (AID 1224868). The essentials:
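HEK293 cells seeded with NanoLuc/prosubstrate reagent, rested 5 h at 37 C, then dosed and kept at 37 C up to 40 h. Nonlytic real-time luminescence from viable cells read at 0, 8, 16, 24, 32 and 40 h.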

Test [16] can be described thus: qHTS assay to identify small molecule agonists of the androgen receptor (AR) signaling pathway in the presence of an antagonist - cell viability counter screen (AID 1259379). Also: potency is read from the fitted curve at half-maximal effect; nearly all actives have a fitted effect of over 25% in size. The note with it: MDA-kb2 viability, CellTiter-Fluor, 16 h. A digest of the protocol:
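MDA-kb2 cells (MMTV-luciferase, AR/GR), 3,000/well, 5 h attachment, then 3.0 µM nilutamide (final) and compounds at 15 concentrations. Viability by CellTiter-Fluor fluorescence after 16 h at 37 °C, 0% CO2, in the reporter wells.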

Test [17] in a line: qHTS assay to identify small molecule agonists of the estrogen receptor alpha (ER-alpha) signaling pathway in the presence of an antagonist - cell viability counter screen (AID 1259386).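 Also: potency is read from the fitted curve at half-maximal effect; cells exposed to compounds for 22 h at 37 °C before the viability read; nearly all actives have a fitted effect of over 30% in size.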 A digest of the protocol: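 Cell viability in VM7Luc4E2 cells (endogenous full-length ER-alpha) measured by CellTiter-Fluor fluorescence in the same wells as the luciferase screen. Cells pre-cultured 5 days in charcoal-stripped serum, then treated 22 h with compounds at 15 concentrations plus 10.0nM ICI-182,780.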

Test [18] can be described thus: Human pregnane X receptor (PXR) small molecule agonists, qHTS cell viability counter screen (AID 1346977). The note with it: PXR-Luc HepG2 viability, CellTiter-Fluor, 24 h. The essentials:
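Tox21 qHTS format; PXR-Luc HepG2, 2,000/well, charcoal-stripped FBS 5%. Cpd exposure 24hr. Read: CellTiter-Fluor fluorescence, multiplexed with luciferase.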

The nature of test [19]: Caspase-3/7 induction in HepG2 cells by small molecules, qHTS cell viability counter screen (AID 1346981). Also: potency is read from the fitted curve at half-maximal effect; nearly all actives have a fitted effect of over 30% in size. The note with it: CellTiter-Fluor fluorescence, 17 h. The essentials:
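Wild-type HepG2 cells, 2,000/well, settled 5 hr at 37 C, 5% CO2 before compound addition. Viability read by CellTiter-Fluor fluorescence, reagent added after 16 hr compound exposure, then 1 hr at 37C, in the same wells as the caspase read.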

The nature of test [20]: qHTS RealTime-Glo MT Cell Viability Assay in HepG2 cells - 32 hour (AID 1224877). Also: % is scaled to controls: 0 for no effect and ±100 for the full control effect; nearly all actives have a fitted effect of over 55% in size. A digest of the protocol: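 HepG2 cells (600/well) were dispensed with RealTime-Glo reagents, incubated 5 h at 37 °C, then treated with compounds in DMSO for up to 40 h. Nonlytic NanoLuc luminescence reflecting viable cells was read at each stated time point.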
A short description of test [21]: qHTS assay to identify small molecule antagonists of the androgen receptor (AR) signaling pathway using the MDA cell line in the presence of 0.5 nM R1881 - cell viability counter screen (AID 1259242). Also: % is scaled to controls: 0 for no effect and ±100 for the full control effect; nearly all actives have a fitted effect of over 45% in size. The essentials:
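MDA-kb2 cells (MMTV-luciferase, AR/GR responsive) were treated with compounds plus 0.5 nM R1881 (final) for 16 hr at 37C, 0% CO2. Viability was then read in the same wells as live-cell protease fluorescence (CellTiter-Fluor, 30 min).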

Test [22] is described as follows: qHTS assay to test for compound auto fluorescence at 590 nm (red) in HEK293 cell free culture (AID 720683). Also: % is scaled to controls: 0 for no effect and ±100 for the full control effect. The note with it: cell-free medium autofluorescence, Ex540/Em590 red; at 91.3 µM (top of the series). A digest of the protocol:
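Tox21 10K library compounds were pinned into cell-free DMEM with 10% FBS and fluorescence was read at excitation 540 nm. Activity is expressed as Rose Bengal sodium equivalency.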

A short description of test [23]: qHTS assay for identifying genotoxic compounds that show differential cytotoxicity against isogenic chicken DT40 cell lines with known DNA damage response pathways - Rad54/Ku70 mutant cell line (AID 743015). Also: potency is read from the fitted curve at half-maximal effect; nearly all actives have a fitted effect of over 60% in size. The note with it: DT40 Rad54/Ku70 mutant viability, CellTiter-Glo, 40 h.
A short description of test [24]: qHTS assay to identify small molecule antagonists of the thyroid receptor (TR) signaling pathway (AID 743065). The note with it: GH3.TRE-Luc, T3-stimulated luciferase inhibition, 23.5 h. The essentials: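 GH3.TRE-Luc rat pituitary cells carrying two TR response elements driving luciferase were plated for 4 h, given compound plus 1 nM T3 (final), and incubated 23.5 h at 37 C. ONE-Glo luminescence measured reporter inhibition; CellTiter-Fluor fluorescence tracked cytotoxicity.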

Test [25] is described as follows: qHTS assay to identify small molecule antagonists of the constitutive androstane receptor (CAR) signaling pathway - cell viability counter screen (AID 1224837). Also: % is scaled to controls: 0 for no effect and ±100 for the full control effect; nearly all actives have a fitted effect of over 45% in size. A digest of the protocol: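 HepG2 cells stably carrying hCAR and CYP2B6-2.2kb reporter, stimulated with 50 nM CITCO and compounds at 15 concentrations for 23 h at 37 C. Viability measured by CellTiter-Fluor fluorescence.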

The target of test [26] is Nuclear receptor subfamily 1 group I member 3 (Homo sapiens) (UniProt Q14994). The test can be described thus: qHTS assay to identify small molecule antagonists of the constitutive androstane receptor (CAR) signaling pathway (AID 1224838). Also: potency is read from the fitted curve at half-maximal effect; nearly all actives have a fitted effect of over 40% in size. The note with it: HepG2-CYP2B6-hCAR luciferase, CITCO-stimulated, 24 h.
A short description of test [27]: Caspase-3/7 induction in CHO-K1 cells by small molecules, qHTS cell viability counter screen (AID 1346979). Also: potency is read from the fitted curve at half-maximal effect; nearly all actives have a fitted effect of over 35% in size. The essentials: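 CellTiter-Fluor viability check, qHTS format: wild-type CHO-K1, 16hr compound treatment, 1hr reagent incubation, fluorescence read.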
Test [28] has as its target Androgen receptor (Homo sapiens) (UniProt P10275). The test can be described thus: qHTS assay to identify small molecule antagonists of the androgen receptor (AR) signaling pathway using the MDA cell line (AID 743042). The note with it: MDA-kb2 AR-luc, MMTV luciferase, R1881 antagonist, 16 h.
Test [29] in a line: qHTS assay to identify small molecule antagonists of the thyroid receptor (TR) signaling pathway - cell viability counter screen (AID 743064). The note with it: GH3.TRE-Luc viability, CellTiter-Fluor, 24 h. The essentials: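 In rat pituitary GH3.TRE-Luc reporter cells co-exposed to compound and 1 nM T3 for 23.5 h, cytotoxicity was assessed with CellTiter-Fluor in the same wells, read by fluorescence.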

The nature of test [30]: qHTS assay to identify small molecule antagonists of the estrogen receptor alpha (ER-alpha) signaling pathway using the BG1 cell line - cell viability counter screen (AID 743081).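 Also: compound given together with 17beta-estradiol as the ER stimulus; potency is read from the fitted curve at half-maximal effect; nearly all actives have a fitted effect of over 45% in size.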

Take `CN(C(=O)Cc1ccccc1)[C@H]1CC[C@@]2(CCCO2)C[C@@H]1N1CCCC1`: the Potency in test [1] is active: 18.8 µM; in test [2], active: 21.1 µM.

Regarding `CC(C)OP(=S)(OC(C)C)SCCNS(=O)(=O)c1ccccc1`, the Potency in test [3] was active: 30.6 µM; in the test with Aromatase (Homo sapiens) it was active: 68.6 µM; in test [4] it was active: 43.6 µM; in test [5] it was active: 61.1 µM; in [6], active: 68.6 µM; in test [7], active: 30.6 µM. The Potency in [8] is active: 21.9 µM; in test [9], active: 30.6 µM.

Take `Nc1cc([N+](=O)[O-])cc([N+](=O)[O-])c1O`: the Potency is active: 27.9 µM in [10]; active: 62.5 µM in [11]; active: 27.9 µM in test [12]; active: 27.9 µM in [13]; active: 31.3 µM in test [14]; active: 55.7 µM in test [6]. In addition, the Potency in [7] is active: 49.6 µM; in test [1] it was active: 27.9 µM; in test [2] it was active: 31.3 µM; in test [16], active: 27.9 µM; in test [17] it was active: 31.3 µM; in [18] it was active: 27.9 µM. In test [19], the Potency was active: 27.9 µM. The Potency entry in test [15] was “inactive”.

Turning to `O=[N+]([O-])[O-].[NH4+]`, the Potency entry (in the test with Aromatase (Homo sapiens); in test [12]; in test [20]; in test [21]) was “inactive” in each case.

Regarding `CN(N=O)C(=N)N[N+](=O)[O-]`, the fluorescence, % of fluorescent control in test [22] was inactive: -0.18%. Further, the Potency in [23] was active: 15.3 µM; in test [24], active: 60.8 µM; with Aromatase (Homo sapiens) it was active: 68.2 µM; in test [12] it was active: 68.2 µM; in test [26] it was active: 17.1 µM; in test [27], active: 48.3 µM. Besides, the Potency result in test [25] was “inactive”.

`CN(C(=O)Cc1ccc(Cl)c(Cl)c1)[C@H]1CC[C@@]2(CCCO2)C[C@@H]1N1CCCC1`: the Potency in test [28], in [29] and in [30] was active: 26.6 µM in each case.

The record behind these values is PubChem BioAssay (Tox21).
